Patent US20040037843A1 (published 2004)

How the values were obtained:
[1] = molecular target: HLA-A*0201 (human); assay: inhibition of 125I probe peptide binding to purified HLA
[2] = molecular target: HLA-A*0202 (human); assay: competition with 125I-labeled probe peptide for purified HLA, gel filtration
[3] = molecular target: HLA-A*0201 (human); assay: as above
[4] = molecular target: HLA-A*0206 (human); assay: as above
[5] = molecular target: HLA-A*0203 (human)
[6] = molecular target: HLA-A*0201 (human)
[7] = molecular target: HLA-A*6802 (human)
[8] = molecular target: HLA-A*6802 (human); assay: competition with 125I probe peptide on purified HLA, gel filtration
[9] = molecular target: HLA-A*0206 (human); assay: as above
[10] = molecular target: HLA-A*0201 (human); assay: as above
[11] = molecular target: HLA-A*0201 (human); assay: competition with 125I-labelled standard peptide for purified HLA
[12] = molecular target: HLA-A*0206 (human); assay: as above
[13] = molecular target: HLA-A*0201 (human); assay: inhibition of 125I probe peptide binding to purified HLA, gel filtration
[14] = molecular target: HLA-A*0206 (human); assay: as above
[15] = molecular target: HLA-A*0201 (human); assay: competition with 125I-labelled standard peptide for purified HLA; remark: listed apart in the source
[16] = molecular target: HLA-A*0206 (human); assay: as above; remark: listed apart in the source

Binder: FLLFFWLDRSV [Peptide 63.0138 FLLFFWLDRSV (PAP.20)]
IC50 [1]: 14 nM

Binder: ATFDIESKV [Peptide 1418.30]
IC50 [2]: 27 nM

Binder: VLAGGFFLV [Peptide 1389.20]
IC50 [3]: 26 nM
IC50 [4]: 57 nM

Binder: TVSGLQMAV [Peptide 60.0213 TVSGLQMAV (PAP.292.V9)]
IC50 [8]: 5.7 nM
IC50 [9]: 195 nM
IC50 [10]: 294 nM

Binder: FLTLSVTWIGV [Peptide 63.0186 (PSA.3.V11)]
IC50 [13]: 6.8 nM
IC50 [14]: 65 nM

Continued, values first:

IC50 [5]: 26 nM
Binder: KVTEFMLCAGV [peptide 1418.71, HuK2.191.V11]

IC50 [6]: 13 nM
IC50 [7]: 205 nM
Binder: SLQCVSLHLV [peptide 1418.52 (HuK2.170.V10)]

IC50 [11]: 6.8 nM
IC50 [12]: 65 nM
Binder: FLTLSVTWIGV [peptide 1419.27, PSA.3.V11]

IC50 [15]: 26 nM
IC50 [16]: 57 nM
Binder: VLAGGFFLV [peptide 1389.20, PSM.27.V9]

IC50 [6]: 294 nM
Binder: ITLSVGCTGAV [peptide 1418.59 (HuK2.8.T2)]

Like-named read-outs stand apart in the source and are kept apart here. One block for each binder: values may come before it.
